Data as given in patent US20170371042A1, “CONTRAST AGENT FOR OPTICAL IMAGING, USE THEREOF AND APPARATUS USING THE SAME” (KYUNGPOOK NATIONAL UNIVERSITY INDUSTRY- ACADEMIC …, priority 2009, published 2017).

Tested on: NIH3T6.7 tumor
Assay: Luminescence and microPET imaging using radioiodinated Herceptin
Format: in vivo, nude mouse
Details: 2 days after injection

^124I-labeled Herceptin: Herceptin (trastuzumab) antibody radioiodinated with ^124I at tyrosine residues using Iodo-Beads
tumor visualization in luminescence imaging (nude mouse, NIH3T6.7 tumor on shoulder and flank, 3.29 MBq, 1 min scan): Two tumor lesions were clearly visualized
tumor visualization in microPET image (same mouse, 20 min scan): only the larger sized tumor (6×5 mm) on the shoulder was barely recognized
